B1: native mVDAC1: mouse VDAC1, native, over-expressed from plasmid (protein)
chain: MAVPPTYADLGKSARDVFTKGYGFGLIKLDLKTKSENGLEFTSSGSANTETTKVNGSLETKYRWTEYGLTFTEKWNTDNTLGTEITVEDQLARGLKLTFDSSFSPNTGKKNAKIKTGYKREHINLGCDVDFDIAGPSIRGALVLGYEGWLAGYQMNFETSKSRVTQSNFAVGYKTDEFQLHTNVNDGTEFGGSIYQKVNKKLETAVNLAWTAGNSNTRFGIAAKYQVDPDACFSAKVNNSSLIGLGYTQTLKPGIKLTLSALLDGKNVNAGGHKLGLGLEFQA
B2: mVDAC-GFP: GFP-tagged native mouse VDAC1 expressed in transfected cells (protein)
chain: B1 chain
modifications: left off: large carriers
notes: GFP-tagged native mouse VDAC1 expressed in transfected cells

Experiments:
U937 cells [1] = test: HK-I over-expression protection against apoptotic cell death in double-transfected cells; type: cell-based, human
Protocol: U937 cells were transfected with pcDNA3.1-HisA or pcDNA3.1-HisA-HK-I (neomycin resistance; provided by Dr. J. E. Wilson, University of Michigan) by electroporation, and grown in complete RPMI 1640 with neomycin ([…]). After 12 days, the selected cells were transfected with pEGFP, pEGFP-mVDAC1 or pEGFP-E72Q-mVDAC1 and were grown in the presence of neomycin ([…]). The viability of double-transfected cells was analyzed during 48 to 76 hr.
To determine cell viability, cells were stained with 100 μg/ml acridine orange (AcOr) and 100 μg/ml ethidium bromide (EtBr) in PBS. Cells were centrifuged at 1500×g for 5 min at room temperature and resuspended in 25 μl of complete medium, to which 2 μl of AcOr/EtBr solution were added. The cells were then visualized by fluorescence microscopy (Olympus IX51) and images were recorded on an Olympus DP70 camera, using a SWB filter.
The effect of HK-I over-expression on apoptotic cell death of the GFP-tagged version of native and E72Q-mVDAC1 over-expressing cells was examined. Cells were first transformed to over-express HK-I and then transfected with native mVDAC1-GFP or E72Q-mVDAC1-GFP. […]

U937 cells [2] = test: Apoptotic cell death of U937 cells transfected with native or mutated mVDAC1, with/without RuR (acridine orange/ethidium bromide staining); type: cell-based, human
Protocol: Logarithmically-growing U937 cells were resuspended in RPMI 1640 supplemented with 10% FCS, 100 U/ml penicillin and […] streptomycin at a concentration of 2.5×10^7 cells/ml. Cells were transfected to express rat or murine VDAC1 using the vectors pEGFP, pEGFP-VDAC1, pEGFP-E72Q-mVDAC1, pE-mVDAC1 or pE-E72Q-mVDAC1. Transfection of the U937 cells was performed by electroporation with a single pulse from a Bio-Rad micropulser II with a capacitance extender unit (200 V, […]). Cells were incubated on ice for 10 min before and after transfection, and then resuspended in 20 ml of RPMI 1640 supplemented with 10% FCS, 1 mM l-glutamine, 100 U/ml penicillin and […] streptomycin. Transfection efficiencies were 68-72%, as assessed by GFP expression. GFP-positive cells were viewed under a microscope using a blue filter.
Cells were plated at a density of 5.4×10^4 cells/cm^2 in 24-well plates, washed once with PBS and placed in serum-free medium. Cells were then incubated with or without RuR or Ru360. Cells were also treated with […] staurosporine (STS) to induce apoptosis and analyzed for viability 3, 5 and 7 hrs after STS addition. Treatments with curcumin (120 μM) or As2O3 (20 μM) were carried out for 48 hrs.
To determine cell viability, cells were stained with 100 μg/ml acridine orange (AcOr) and 100 μg/ml ethidium bromide (EtBr) in PBS. […] The cells were then visualized by fluorescence microscopy (Olympus IX51) and images were recorded on an Olympus DP70 camera, using a SWB filter.
To further investigate the relationship between the protective effect of RuR and its interaction with VDAC1, leukemic U937 cells were transfected with a plasmid encoding native, E65Q, E72Q, K73L, or D77N-mVDAC1 variant. Fifty six (56) hr after transfection, cells were exposed for 20 hr to RuR (1 μM) and cell viability was analyzed using acridine orange/ethidium bromide staining. In each independent experiment, approximately 250 cells were counted for each including early and late apoptotic cells. […]

Row | Molecule | level of apoptosis in cells over-expressing HK-I (U937 cells [1]; U937 cells first transformed to over-express HK-I) [%] | protective effect of HK-I over-expression against cell death induced by mVDAC1 over-expression (U937 cells [1]; U937 or T-Rex 293 cells stably over-expressing HK-I, mVDAC1-GFP constructs) | % of protection (U937 cells [2]; protection by RuR (1 μM) against apoptosis of transfected U937 cells) [%] | Apoptotic cells, % −RuR (U937 cells [2]; transfected U937 cells, without RuR, mean±SEM (n=3)) [%] | Apoptotic cells, % +RuR (U937 cells [2]; transfected U937 cells, 56 hr after transfection exposed 20 hr to RuR (1 μM), mean±SEM (n=3)) [%]
1 | B1 | < 10 | dramatically reduced |  |  | 
2 | B2 |  |  | 65 | 69.6 ± 2.7 | 24.7 ± 2.2

Reference: patent US8648045B2, “VDAC1 compositions and methods of use thereof for regulating apoptosis” (Ben Gurion University of the Negev Research and Development …, priority 2005, dated 2014)
